# Reported melting point values for industrial, environmental and drug-like chemicals

Melting points are in °C. "n/a" marks a cell with nothing listed here.

structure (SMILES) | name | mp (°C)
COc1ccc(S(=O)(=O)Cl)cc1C | 4-Methoxy-3-methylbenzene-1-sulfonyl chloride | 52
N#Cc1cc([N+](=O)[O-])cnc1Cl | 2-Chloro-5-nitronicotinonitrile | 120
Cc1ccccc1C(=O)CC#N | 2-METHYLBENZOYLACETONITRILE | 85
CC(=O)Nc1ccc(C)c(S(=O)(=O)Cl)c1 | 5-Acetamido-2-methylbenzenesulphonyl chloride | 96
CN(C)CCCN(CCCN(C)C)CCCN(C)C | n/a | -91
Cc1[nH]c(=S)[nH]c(=O)c1CCO | n/a | 264
CC(C)CC(C(=O)O)N1C(=O)c2ccccc2C1=O (stereo unspecified) | n/a | 120
O=C1c2ccccc2S(=O)(=O)N1CCl | n/a | 146
CCCCc1oc2ccc(NS(C)(=O)=O)cc2c1C(=O)c1ccc(OCCCN(CCCC)CCCC)cc1 | Dronedarone | 151
Cc1[nH]c2ccccc2c1C(=O)CCl | 2-chloro-1-(2-methyl-1H-indol-3-yl)ethanone | 228
CCCCC(CC)COP(=O)(O)O.OCCNCCO (stereo unspecified) | n/a | -63
COc1ccc2c(c1)C(=O)CCO2 | 6-methoxychroman-4-one | 45
Cc1nc(-c2ccccc2)ccc1C(=O)O | 2-methyl-6-phenylnicotinic acid | 191
O=C(CCl)NCC1COc2ccccc2O1 (stereo unspecified) | n/a | 213
O=C(O)CCn1ncc(=O)c2ccccc21 | 3-(4-oxocinnolin-1(4H)-yl)propanoic acid | 131
ClCC12CC3CC(CC(C3)C1)C2 | 1-(chloromethyl)adamantane | 40
O=C(O)CNc1nc2ccccc2s1 | 2-(1,3-benzothiazol-2-ylamino)acetic acid | 175
CC1=NN(C2CCS(=O)(=O)C2)C(=O)C1 (stereo unspecified) | n/a | 186
FC(F)CCCCC(F)(F)COP1(OCC(F)(F)C(F)(F)C(F)(F)C(F)(F)C(F)(F)C(F)F)=NP(OCC(F)(F)C(F)(F)C(F)(F)C(F)(F)C(F)(F)C(F)F)(OCC(F)(F)C(F)(F)C(F)(F)C(F)(F)C(F)(F)C(F)F)=NP(OCC(F)(F)C(F)(F)C(F)(F)C(F)(F)C(F)(F)C(F)F)(OCC(F)(F)C(F)(F)C(F)(F)C(F)(F)C(F)(F)C(F)F)=N1 (stereo unspecified) | n/a | 30
Cl.Cl.N=C(N)Nc1nc(CSC(=N)N)cs1 | n/a | 185
O=C1Nc2cc(OC(F)(F)F)ccc2C1=O | 6-(Trifluoromethoxy)-1H-indole-2,3-dione | 184
COc1cc(C(=O)O)ccc1OCC(C)C | 4-isobutoxy-3-methoxybenzoic acid | 146
NCc1ccccn1 | 2-Pyridinemethanamine | 81
ClCc1cc(Cl)cc2c1OC(c1ccccc1)OC2 (stereo unspecified) | 6-Chloro-8-(chloromethyl)-2-phenyl-2H,4H-1,3-benzodioxine | 112
O=S1(=O)CCC(Nc2ccccc2)C1 (stereo unspecified) | 3-Anilino-1lambda~6~-thiolane-1,1-dione | 121
O=C(O)Cn1[nH]c(=O)c2ccccc2c1=O | (1,4-dioxo-3,4-dihydrophthalazin-2(1H)-yl)acetic acid | 273
Nc1ccc(S(=O)(=O)Nc2ccc(Cl)cc2)cc1 | 4-amino-N-(4-chlorophenyl)benzenesulfonamide | 181
CCOC(=O)c1ccc(N2CCNCC2)nc1 | Ethyl 6-(piperazin-1-yl)pyridine-3-carboxylate | 50
NNC(=O)C1CC1 | Cyclopropanecarbohydrazide | 93
CCCCCCCCCC(=O)OCC(C)OC(=O)CCCCCCCCC (stereo unspecified) | 1,2-Propanediol didecanoate | -6
Cc1n[nH]c(C)c1CCC(=O)O | 3-(3,5-dimethyl-1H-pyrazol-4-yl)propanoic acid | 170
CCNc1cc(C#N)c(N)c2c1C(=O)c1ccccc1C2=O | n/a | 236.7
Cc1ccc(NC(=O)C2CCNCC2)nc1 | N-(5-Methylpyridin-2-yl)piperidine-4-carboxamide | 146
Cc1cccc(C(N)=O)c1N | 2-Amino-3-methylbenzamide | 146
COc1ccc(-c2nn(-c3ccccc3)cc2C=CC(=O)O)cc1 | n/a | 239
COc1ccc(Cl)cc1CC#N | (5-chloro-2-methoxyphenyl)acetonitrile | 53
Cc1cc(NN)nc2ccccc12 | 2-hydrazino-4-methylquinoline | 147

Repeated from above, the 3 entries with the highest mp:

| structure (SMILES) | name | mp (°C) |
|---|---|---|
| O=C(O)Cn1[nH]c(=O)c2ccccc2c1=O | (1,4-dioxo-3,4-dihydrophthalazin-2(1H)-yl)acetic acid | 273 |
| Cc1[nH]c(=S)[nH]c(=O)c1CCO | n/a | 264 |
| COc1ccc(-c2nn(-c3ccccc3)cc2C=CC(=O)O)cc1 | n/a | 239 |

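The numbers are reported measurements, compiled and curated for the OPERA QSAR suite. One number stands for a compound and property, with no spread given. Conditions of the individual experiments are not part of the data. A value may pool stereoisomers or salt forms, and the file does not say which form was measured. Some entries may be limits or estimates that an upstream database listed as plain numbers.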

Source: data files of OPERA 2.9 (Mansouri et al.), github.com/kmansouri/OPERA.